Our source for the IC50 values is US9815835B2, “Substituted polycyclic carbamolypyridone derivative” (priority 2009, dated 2017).

The first assay concerns the target cap-dependent endonuclease (RNP fraction containing PB1•PB2•PA complex) (Influenza A virus, UniProt P15659). Kind of assay: biochemical. Details: species or system A/WSN/33 virus. The settings on record: CEN IC50.
As for `CC(N1CN(C2c3ccccc3CSc3c(F)cccc32)n2ccc(=O)c(O)c2C1=O)C(F)(F)F` (stereo not shown) [Example 342], half-maximal inhibition (IC50) was put at 0.099 µM.
With `C[C@@H](N1CN(C2c3ccccc3COc3ccc(F)cc32)n2ccc(=O)c(O)c2C1=O)C(F)(F)F` (stereo partly shown) [Example 410], the IC50 (usually the concentration that gives 50% inhibition) was 0.265 µM.
The same measure, in the same setting: the figure for `CC(C)(C)N1CN(C2c3ccccc3CCc3ccccc32)n2ccc(=O)c(O)c2C1=O` [Example 265] is 0.172 µM; for `C[C@@H](N1CN([C@H]2c3ccccc3SCc3cccc(Cl)c32)n2ccc(=O)c(O)c2C1=O)C(F)(F)F` [Example 430] it is 0.168 µM; for `C[C@H](N1CN([C@H]2c3ccccc3CSc3ccc(Cl)cc32)n2ccc(=O)c(O)c2C1=O)C(F)(F)F` [Example 475] it is 0.164 µM.
`CC(=O)OCC(C)N1CN(C2c3ccccc3CCc3ccccc32)n2ccc(=O)c(O)c2C1=O` (stereo not shown) [Example 261]: the IC50 is 0.058 µM.
`CN1CCC(CN2CN(C3c4ccccc4CSc4ccccc43)n3ccc(=O)c(O)c3C2=O)CC1` (stereo not shown) [Example 292] yielded an IC50 of 0.155 µM.
The compound `COCCN1CN(C2c3ccccc3COc3ccc(F)cc32)n2ccc(=O)c(O)c2C1=O` (stereo not shown) [Example 401] gave an IC50 of 0.089 µM.
On the same count and under the same terms, the figure for `CC(C)N1CN(C2c3ccccc3COc3ccccc32)n2ccc(=O)c(O)c2C1=O` (stereo not shown) [Example 391] is 0.264 µM; for `CC(=O)N1CC[C@@H](N2CN(C3c4ccccc4CSc4ccccc43)n3ccc(=O)c(O)c3C2=O)C1` (stereo partly shown) [Example 289] it is 0.031 µM.
Compound `C[C@@H](N1CN([C@H]2c3ccccc3CSc3ccc(Cl)cc32)n2ccc(=O)c(O)c2C1=O)C(F)(F)F` [Example 455] yielded an IC50 of 0.025 µM.
In turn, `CC(C)N1CN(C2c3cc(F)ccc3CCc3ccc(F)cc32)n2ccc(=O)c(O)c2C1=O` [Example 279] gave an IC50 of 0.056 µM.
Still for that read-out and setting: as for `CC(=O)OCCN1CN(C2c3ccccc3CSc3c(Cl)cccc32)n2ccc(=O)c(O)c2C1=O` (stereo not shown) [Example 359], the figure is 0.037 µM; as for `CC(C)(C)[C@H](CO)N1CN(C2c3ccccc3CSc3ccccc32)n2ccc(=O)c(O)c2C1=O` (stereo partly shown) [Example 381], 0.2 µM.
Still for that read-out and setting: the figure for `O=C1c2c(O)c(=O)ccn2N(C2c3ccccc3CSc3ccccc32)CN1CCOC(F)(F)F` (stereo not shown) [Example 297] is 0.045 µM.
In the case of `CC(CN1CCOCC1)N1CN(C2c3ccccc3CSc3ccccc32)n2ccc(=O)c(O)c2C1=O` (stereo not shown) [Example 483], the IC50 came out at 0.101 µM.
The same measure, in the same setting: the figure for `C[C@H](N1CN([C@H]2c3ccccc3CSc3ccc(F)cc32)n2ccc(=O)c(O)c2C1=O)C(F)(F)F` [Example 461] is 0.255 µM.
On to `CC(C)C[C@@H](CO)N1CN(C2c3ccccc3CSc3ccccc32)n2ccc(=O)c(O)c2C1=O` (stereo partly shown) [Example 377], for which the IC50 came out at 0.024 µM.
`N#Cc1ccccc1N1CC(C2c3ccccc3CCc3ccccc32)n2ccc(=O)c(O)c2C1=O` (stereo not shown) [Example 568] returned an IC50 of 0.264 µM.
Still for that read-out and setting: the figure for `O=C1c2c(O)c(=O)ccn2N(C2c3ccccc3CSc3c(Cl)cccc32)CN1[C@@H]1C[C@@H]1F` (stereo partly shown) [Example 332] is 0.048 µM; for `CC(N1CN(C2c3ccccc3COc3c(F)cccc32)n2ccc(=O)c(O)c2C1=O)C(F)(F)F` (stereo not shown) [Example 406] it is 0.119 µM.
Same read-out and setting: the figure for `CC(C)N1C(=O)c2c(O)c(=O)ccn2N(C2c3ccccc3CCc3ccccc32)C1CCN(C)C` (stereo not shown) [Example 537] is 0.152 µM.
For the compound `CCN1C(=O)c2c(O)c(=O)ccn2C(C2c3ccccc3CSc3ccccc32)N1CC` (stereo not shown) [Example 502], inhibition was half-maximal at 0.042 µM (IC50).
As to `CCOCCN1CN(C2c3ccccc3CSc3ccccc32)n2ccc(=O)c(O)c2C1=O` (stereo not shown) [Example 312], the IC50 came to 0.019 µM.
On the same count and under the same terms, the figure for `CC(C)N1CN(C2c3ccccc3CSc3c(F)cccc32)n2ccc(=O)c(O)c2C1=O` (stereo not shown) [Example 351] is 0.091 µM; for `C[C@H](N1CN([C@@H]2c3ccccc3CSc3ccccc32)n2ccc(=O)c(O)c2C1=O)C(F)(F)F` [Example 415] it is 0.285 µM.
Same read-out and setting: the figure for `CC(C)(C)[C@@H](CO)N1CN(C2c3ccccc3CSc3ccccc32)n2ccc(=O)c(O)c2C1=O` (stereo partly shown) [Example 380] is 0.123 µM; for `COCCCC1N(C(C)C)C(=O)c2c(O)c(=O)ccn2N1C1c2ccccc2CCc2ccccc21` (stereo not shown) [Example 522] it is 0.039 µM.
Same read-out and setting: the figure for `C[C@@H](N1CN([C@@H]2c3ccccc3SCc3cccc(Cl)c32)n2ccc(=O)c(O)c2C1=O)C(F)(F)F` [Example 429] is 0.016 µM.
Regarding `C[C@H](N1CN([C@@H]2c3ccccc3SCc3cccc(Cl)c32)n2ccc(=O)c(O)c2C1=O)C(F)(F)F` [Example 431], the IC50 was 0.097 µM.
In turn, `CC(C)N1C(=O)c2c(O)c(=O)ccn2N(C2c3ccccc3CCc3ccccc32)C1CCCN` (stereo not shown) [Example 534] came in with an IC50 of 0.165 µM.

Still in this assay, the particulars now being: RNP from A/WSN/33 virus, capped Cy3/BHQ2 30mer RNA substrate, 60 minutes at room temperature; read-out: CEN IC50.
For `COCCN1C(=O)c2c(O)c(=O)c(C(=O)O)cn2N(C2c3ccccc3CCc3ccccc32)C1CCSC` (stereo not shown) [Example 556], the IC50 amounted to 0.023 µM.
Take `CCCN1C[C@H](C(c2ccccc2)c2ccccc2)n2cc(C(=O)O)c(=O)c(O)c2C1=O` [Example 181]: the IC50 is 0.049 µM.
On the same count and under the same terms, the figure for `CC(N1CN(C(c2ccccc2)c2ccccc2Cl)n2ccc(=O)c(O)c2C1=O)C(F)(F)F` (stereo not shown) [Example 242] is 0.114 µM.
The same measure, in the same setting: the figure for `C[C@@H](N1CN(C(c2ccccc2)c2ccccc2Cl)n2ccc(=O)c(O)c2C1=O)C(F)(F)F` (stereo partly shown) [Example 243] is 0.076 µM; for `CCN(CC)CC1N(CCO)C(=O)c2c(O)c(=O)ccn2N1C1c2ccccc2CCc2ccccc21` (stereo not shown) [Example 550] it is 0.042 µM.
For the compound `CC(=O)OCCN1CN(C2c3ccccc3CSc3ccccc32)n2ccc(=O)c(O)c2C1=O` (stereo not shown) [Example 325], the half-inhibitory concentration (IC50) was 0.032 µM.
Still for that read-out and setting: the figure for `COCCCC1N(C(C)C)C(=O)c2c(O)c(=O)ccn2N1C1c2ccc(F)cc2CCc2cc(F)ccc21` (stereo not shown) [Example 526] is 0.044 µM; for `CCCC(C)N1C[C@H](C(c2ccccc2)c2ccccc2)n2cc(C(=O)O)c(=O)c(O)c2C1=O` (stereo partly shown) [Example 187] it is 0.085 µM.
The same measure, in the same setting: as for `CSCC1N(C(C)C)C(=O)c2c(O)c(=O)ccn2N1C1c2ccccc2CCc2ccccc21` (stereo not shown) [Example 514], the figure is 0.049 µM.
Still for that read-out and setting: as for `C[C@@H](N1CN([C@H]2c3cc(F)ccc3CSc3ccccc32)n2ccc(=O)c(O)c2C1=O)C(F)(F)F` [Example 441], the figure is 0.044 µM; as for `C[C@@H](N1CN([C@@H]2c3ccccc3SCc3cccc(F)c32)n2ccc(=O)c(O)c2C1=O)C(F)(F)F` [Example 456], 0.032 µM; as for `COCCN1C[C@H](C(c2ccccc2)c2ccccc2)n2cc(Br)c(=O)c(O)c2C1=O` [Example 63], 0.17 µM.
As to `CCCC1N(C(C)C)C(=O)c2c(O)c(=O)ccn2N1C1c2ccccc2CCc2ccccc21` (stereo not shown) [Example 518], the IC50 came to 0.049 µM.
On to `C[C@H](CO)N1CN(C2c3ccccc3CSc3ccccc32)n2ccc(=O)c(O)c2C1=O` (stereo partly shown) [Example 373], for which the half-inhibitory concentration (IC50) was 0.065 µM.
The same measure, in the same setting: as for `C[C@@H](N1CN([C@H]2c3ccccc3CSc3c(Cl)cccc32)n2ccc(=O)c(O)c2C1=O)C(F)(F)F` [Example 450], the figure is 0.023 µM.
Turning to `COCCN1CN(C2c3cc(F)ccc3COc3cc(F)ccc32)n2ccc(=O)c(O)c2C1=O` (stereo not shown) [Example 402], the IC50 is 0.085 µM.
The same measure, in the same setting: as for `CC(C)N1CN(C2c3ccccc3CCc3c(Cl)cccc32)n2ccc(=O)c(O)c2C1=O` (stereo not shown) [Example 282], the figure is 0.036 µM.
For `CC(C)N1CN(C2c3ccccc3CSc3ccc(Cl)cc32)n2ccc(=O)c(O)c2C1=O` (stereo not shown) [Example 328], the IC50 was 0.029 µM.
